Reference: patent US20100184601A1, “Method and Means Relating to Multiple Herbicide Resistance in Plants” (University of Durham, priority 2007, published 2010)
Only a part of the results on these compounds is given; other tests are left out.

Test system: MHR black-grass plants
Test: Phytotoxicity screen: compound pre-treatment of MHR black-grass followed by chlortoluron, scored for phytotoxic injury
Format: in vivo, black-grass (Alopecurus myosuroides)
Settings: compound at 80 g a.i. ha^−1 on 14 day old MHR black-grass; chlortoluron 500 g a.i.ha^−1 48 h later; scored after 10 days

Row | SMILES | Score (phytotoxic injury)
1 | O=[N+]([O-])c1cc([N+](=O)[O-])c2c(c1)no[n+]2[O-] | +
2 | O=[N+]([O-])c1cc([N+](=O)[O-])c2no[n+]([O-])c2c1 | +
